# Apparent affinities of Ab-14 variants for a coronavirus HR2 peptide

Values reported by Engelhart et al. 2022, doi:10.1038/s41597-022-01779-4 (FLAb copy).

Target peptide (SARS-CoV-2 spike, HR2 region): PDVDLGDISGINAS

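The parent was found by panning a naive human phage display library on the peptide. AAYL50 was designed without a model: most single CDR substitutions and a random sample of double and triple ones. The assay is AlphaSeq: two haploid yeast populations carry antibody and antigen on their surface. Mating (16 h, 30 °C) was followed by selection of diploids and sequencing of their barcodes. Read counts were normalised to the haploid input and turned into Kd by a linear fit to BCL2-family pairs of known affinity, for each replicate. Each pool was mated in three replicate cultures.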

Each scFv is VH, a 15-residue (Gly4Ser)3 linker, VL, as in the parent Ab-14, and differs from it in the CDRs of the light chain only.
VH: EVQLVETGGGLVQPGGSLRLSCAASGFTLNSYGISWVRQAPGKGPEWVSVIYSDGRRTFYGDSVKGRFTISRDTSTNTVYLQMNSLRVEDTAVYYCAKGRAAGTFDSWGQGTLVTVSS
VL: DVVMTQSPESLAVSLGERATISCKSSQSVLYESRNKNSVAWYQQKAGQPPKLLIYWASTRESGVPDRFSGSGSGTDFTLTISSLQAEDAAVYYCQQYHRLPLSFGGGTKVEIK

The whole VL of each variant is written out. This list gathers variants with a substitution at Y31 (VL, numbered from residue 1). Numbers give log10(Kd / nM), so 0 is 1 nM and 3 is 1 µM. Smaller is tighter. Replicates are averaged; those with no signal do not enter the mean. A pair that was not seen in any replicate is written "nd"; this usually means weak binding, but a binder can also be missed. Parent in this assay: reference entry 0.65, copy in this library 1.68.

VL	mean, log10 nM	detected
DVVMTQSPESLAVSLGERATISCKSSQSFLFESRNKNSVAWYQQKAGQPPKLLIYWASTRESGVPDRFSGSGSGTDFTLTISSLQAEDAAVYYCQQPHRLPLSFGGGTKVEIK	3.09	1/3
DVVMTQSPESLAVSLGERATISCKSSQSMLIESRNKNSVAWYQQKAGQPPKLLIYWASTRESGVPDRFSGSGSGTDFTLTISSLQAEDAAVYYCQQYHRLPLSFGGGTKVEIK	0.57	3/3
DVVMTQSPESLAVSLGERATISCKSSQSVLVESRPRNSVAWYQQKAGQPPKLLIYWASTRESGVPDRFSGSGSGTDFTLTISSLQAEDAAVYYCQQYHRLPLSFGGGTKVEIK	1.48	3/3
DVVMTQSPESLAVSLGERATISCKSSQSVLLESRNKNAVAWYQQKAGQPPKLLIYWASTRESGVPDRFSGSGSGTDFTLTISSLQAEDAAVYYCQQYHRLPLEFGGGTKVEIK	1.36	3/3
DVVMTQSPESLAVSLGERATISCKSSQSVLNESRNKNSVAWYQQKAGQPPKLLIYWASTRENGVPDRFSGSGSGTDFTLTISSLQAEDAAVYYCRQYHRLPLSFGGGTKVEIK	3.87	1/3
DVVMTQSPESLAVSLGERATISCKSHQSVLKESRNKNSVAWYQQKAGQPPKLLIYWASTRESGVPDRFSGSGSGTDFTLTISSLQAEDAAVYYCQIYHRLPLSFGGGTKVEIK	nd	0/3
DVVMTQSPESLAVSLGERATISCKSSQSVTNESRNKNSVSWYQQKAGQPPKLLIYWASTRESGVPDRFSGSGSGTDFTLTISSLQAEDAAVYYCQQYHRLPLSFGGGTKVEIK	2.48	3/3
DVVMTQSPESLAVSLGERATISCKSSQSALEESRNKNSVAWYQQKAGQPPKLLIYWADTRESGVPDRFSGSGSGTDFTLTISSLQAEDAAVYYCQQYHRLPLSFGGGTKVEIK	0.99	3/3
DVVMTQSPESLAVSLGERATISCKSSQSVTMESRNKNSMAWYQQKAGQPPKLLIYWASTRESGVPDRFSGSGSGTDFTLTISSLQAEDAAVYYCQQYHRLPLSFGGGTKVEIK	1.24	3/3
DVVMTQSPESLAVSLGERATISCKSSQSVLLESRNKNSVAWYQQKAGQPPKLLIYDARTRESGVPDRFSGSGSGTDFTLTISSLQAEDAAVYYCQQYHRLPLSFGGGTKVEIK	0.83	3/3
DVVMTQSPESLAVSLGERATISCKSSQSVLIESRNKNSVAWYQQKAGQPPKLLIYWASTQESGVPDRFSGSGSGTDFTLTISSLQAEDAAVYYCQQYHRRPLSFGGGTKVEIK	nd	0/3
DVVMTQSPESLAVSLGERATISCKSSQSVLWESRNKNSVAWYQQKAGQPPKLLIYWPSTRESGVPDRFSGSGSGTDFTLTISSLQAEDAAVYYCQQYHRLGLSFGGGTKVEIK	nd	0/3
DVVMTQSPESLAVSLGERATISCKSSQSVLTESRNKNSVAWYQQKAGQPPKLLIYWASKKESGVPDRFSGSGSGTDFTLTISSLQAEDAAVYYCQQYHRLPLSFGGGTKVEIK	4.22	2/3
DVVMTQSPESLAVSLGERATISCKSSLSVLFESRNKNSVAWYQQKAGQPPKLLIYWASTREIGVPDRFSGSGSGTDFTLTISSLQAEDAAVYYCQQYHRLPLSFGGGTKVEIK	nd	0/3
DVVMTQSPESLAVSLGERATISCKSSQSVLRESRNKNSNAWYQQKAGQPPKLLIYWASTREVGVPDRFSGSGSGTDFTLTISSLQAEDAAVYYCQQYHRLPLSFGGGTKVEIK	nd	0/3
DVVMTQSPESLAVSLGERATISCKDSQSVLHESRNKNSVAWYQQKAGQPPKLLIYWASTRESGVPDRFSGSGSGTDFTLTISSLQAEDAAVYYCQYYHRLPLSFGGGTKVEIK	1.60	3/3
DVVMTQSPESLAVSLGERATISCKSSQSVLEKSRNKNSVAWYQQKAGQPPKLLIYWAITRESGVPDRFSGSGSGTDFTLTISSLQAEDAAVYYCQQYHRLPLSFGGGTKVEIK	1.72	3/3
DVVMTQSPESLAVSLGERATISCKSSQSVLTESLNKNSVAWYQQKAGQPPKLLIYWPSTRESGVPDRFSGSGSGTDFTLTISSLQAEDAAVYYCQQYHRLPLSFGGGTKVEIK	4.22	1/3
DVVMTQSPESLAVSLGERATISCKSLQSVLVESRNKNSVAWYQQKAGQPPKLLIYYASTRESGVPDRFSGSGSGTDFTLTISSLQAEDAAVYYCQQYHRLPLSFGGGTKVEIK	0.48	3/3

The last 2 entries again:

VL	mean, log10 nM	detected
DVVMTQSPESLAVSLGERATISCKSSQSVLTESLNKNSVAWYQQKAGQPPKLLIYWPSTRESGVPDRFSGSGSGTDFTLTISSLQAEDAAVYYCQQYHRLPLSFGGGTKVEIK	4.22	1/3
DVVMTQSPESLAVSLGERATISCKSLQSVLVESRNKNSVAWYQQKAGQPPKLLIYYASTRESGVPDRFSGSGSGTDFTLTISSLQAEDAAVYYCQQYHRLPLSFGGGTKVEIK	0.48	3/3

Nonspecific signal, from three strains lacking the peptide, appeared in 18% of pairings of library AAYL50, centred on 4.19 (5% of these signals below 2.99); values are not corrected for it.